Source: paper PMC10294837 (2023)
Like-named read-outs stand apart in the source and are kept apart here.

Protein sequences, listed by entry. Tags and fused reporters are not part of them.
UniProt Q6Q2J0, whole entry: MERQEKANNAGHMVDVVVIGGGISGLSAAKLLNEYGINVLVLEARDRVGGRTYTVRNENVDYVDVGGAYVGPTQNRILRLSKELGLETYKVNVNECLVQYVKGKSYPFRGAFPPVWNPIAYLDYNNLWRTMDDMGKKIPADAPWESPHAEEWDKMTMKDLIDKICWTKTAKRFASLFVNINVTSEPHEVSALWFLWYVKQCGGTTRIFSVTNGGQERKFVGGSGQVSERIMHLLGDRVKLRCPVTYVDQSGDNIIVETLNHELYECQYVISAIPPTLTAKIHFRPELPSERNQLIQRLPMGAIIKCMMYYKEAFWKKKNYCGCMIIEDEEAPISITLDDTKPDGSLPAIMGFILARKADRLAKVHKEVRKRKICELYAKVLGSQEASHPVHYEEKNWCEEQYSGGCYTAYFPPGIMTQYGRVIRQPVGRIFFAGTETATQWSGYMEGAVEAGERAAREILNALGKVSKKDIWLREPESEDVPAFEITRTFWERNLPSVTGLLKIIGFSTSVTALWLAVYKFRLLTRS

Experiments:
MAO-A = MAO-A (Sus scrofa, UniProt Q6Q2J0); assay: MAO-A activity, radiolabeled [3H]serotonin substrate, pig brain mitochondria; assay type: biochemical
[1] = tested on: complex I-linked respiration in isolated mitochondria; assay: Complex I-linked respiration, high-resolution respirometry in isolated mitochondria

Inhibition (partial/full), MAO-A (MAO-A): partial | Inhibition (partial/full), MAO-A (MAO-A; listed as TRA): partial inhibitors | Hill Slope, MAO-A (MAO-A; mean ± SEM, four measurements): 1.23 ± 0.22 | Residual Activity, MAO-A (MAO-A; mean ± SEM, four measurements): 0.184 ± 0.042 rel.u.
SMILES: O=c1n(CCCN2CCN(c3cccc(Cl)c3)CC2)nc2ccccn12 [trazodone]
Inhibition (partial/full), complex I-linked respiration [1]: partial | Residual Activity, complex I-linked respiration ([1]; mean ± SEM, four measurements): 0.815 ± 0.015 rel.u.
